We go through 23 molecules from patent publication US20060094649A1, “Hla-a1,-a2,-a3,-a24,-b7, and-b44 tumor associated antigen peptides and compositions” (priority 2002, published 2006).

The target of one assay is HLA-B*4001 (Homo sapiens, UniProt P01889, A65T/A93T/A95T/D138N/D98Y/E176V/E69K/N87E/Q56L/Q94N/R180L/S121R/S35A/S48T/T167S/V36M/W171L/Y33H/Y91S). The assay can be described thus: Class I peptide-binding assay, HLA-B*4001 (B44 supertype). The conditions noted are these: read-out: B*4001.
For assay [1], the system named is HLA-B44 supertype molecules. The assay is described as follows: HLA-B44 supertype cross-binding. Set-up: species or system human. To be noted: number of the six B44 supertype alleles bound.
A further assay deals with HLA-B*4002 (Homo sapiens, UniProt P01889, A65T/A93T/A95T/D138N/D201E/D98Y/E176V/E204Q/E69K/K202T/N87E/Q56L/Q94N/R180L/S48T/Y33H/Y91S). The assay is described as follows: Class I peptide-binding assay, HLA-B*4002 (B44 supertype). The conditions noted are these: read-out: B*4002.
For the next assay, the target named is HLA-B*4501 (Homo sapiens, UniProt P01889, A329T/A65T/A93T/A95T/C349S/D138N/D201E/D98Y/E176V/E187L/E204Q/E69K/H137Y/K202T/L119W/N87E/Q56L/Q94N/R155S/R180D/S121R/S35A/S48T/V127L/V306I/V36M/W191S/Y140L/Y33H/Y91S). The assay can be described thus: Class I peptide-binding assay, HLA-B*4501 (B44 supertype). The conditions noted are these: read-out: B*4501.
Where [2] appears, read: HER2/neu-derived B44 peptides, Table 27, binding to purified HLA-B*4001.
[3] abbreviates: HER2/neu-derived B44 peptides, Table 27, binding to purified HLA-B*4002.
Setting [4] is: p53-derived B44 peptides, Table 28, dash cells.
The mark [5] stands for this setting: p53-derived B44 peptides, Table 28.
Where [6] appears, read: MAGE2-derived B44 peptides, Table 29, dash cells.

SMILES strings stand for the structures. Like-named read-outs stand apart in the source and are kept apart here. Bounds are passed on as bounds.

With `CC(C)[C@H](NC(=O)[C@H](CCCNC(=N)N)NC(=O)[C@H](Cc1ccccc1)NC(=O)[C@H](CCC(N)=O)NC(=O)CNC(=O)[C@@H](NC(=O)[C@H](C)NC(=O)[C@H](CCC(=O)O)NC(=O)[C@@H](N)CCC(=O)O)[C@@H](C)O)C(=O)N[C@@H](Cc1ccc(O)cc1)C(=O)O`, on HLA-B*4001 (CEA-derived B44 peptides), the IC50 is over 10 µM. This molecule showed a Degeneracy in assay [1] of 2.
As to `CC[C@H](C)[C@H](NC(=O)[C@H](CCCCN)NC(=O)[C@H](CCC(=O)O)NC(=O)[C@@H](N)CCC(=O)O)C(=O)N[C@@H](Cc1c[nH]c2ccccc12)C(=O)N[C@@H](CCC(=O)O)C(=O)N[C@@H](CCC(=O)O)C(=O)N[C@@H](CC(C)C)C(=O)N[C@@H](CO)C(=O)N[C@H](C(=O)O)C(C)C`, at HLA-B*4001 (MAGE3-derived B44 peptides, binding to purified HLA-B*4001), the IC50 turned out to be 8.95 µM. The Degeneracy in assay [1] was 5.
As for `C[C@H](NC(=O)[C@H](CCC(=O)O)NC(=O)[C@H](CCC(=O)O)NC(=O)[C@@H](N)CC(N)=O)C(=O)N[C@H](C(=O)NCC(=O)N[C@@H](CCC(N)=O)C(=O)N[C@@H](Cc1ccccc1)C(=O)O)[C@@H](C)O`, the IC50 at HLA-B*4001 (CEA-derived B44 peptides) and on HLA-B*4002 (CEA-derived B44 peptides) was over 10 µM each time. The Degeneracy in assay [1] is listed as 0.
`CC(C)[C@H](NC(=O)[C@H](CCCNC(=N)N)NC(=O)[C@H](Cc1ccccc1)NC(=O)[C@H](CCC(N)=O)NC(=O)CNC(=O)[C@@H](NC(=O)[C@H](C)NC(=O)[C@H](CCC(=O)O)NC(=O)[C@H](CCC(=O)O)NC(=O)[C@@H](N)CC(N)=O)[C@@H](C)O)C(=O)O`: the IC50 on HLA-B*4001 (CEA-derived B44 peptides) and on HLA-B*4002 (CEA-derived B44 peptides) was over 10 µM in each case. In assay [1], the Degeneracy came out at 2.
On to `CC(C)C[C@H](NC(=O)[C@H](Cc1ccc(O)cc1)NC(=O)[C@@H](NC(=O)[C@H](C)NC(=O)[C@H](CC(=O)O)NC(=O)[C@H](CCC(N)=O)NC(=O)[C@@H](NC(=O)[C@H](CCC(=O)O)NC(=O)[C@@H]1CCCN1)[C@@H](C)O)[C@@H](C)O)C(=O)N[C@@H](Cc1c[nH]c2ccccc12)C(=O)N[C@@H](Cc1c[nH]c2ccccc12)C(=O)O`, for which the IC50 on HLA-B*4001 (CEA-derived B44 peptides) and on HLA-B*4002 (CEA-derived B44 peptides) was over 10 µM in each case. In addition, the Degeneracy in assay [1] is 0.
With `CC(C)C[C@H](NC(=O)[C@H](C)NC(=O)[C@@H](NC(=O)[C@H](C)NC(=O)[C@H](CC(=O)O)NC(=O)[C@H](CCC(=O)O)NC(=O)[C@H](CC(=O)O)NC(=O)[C@H](CCC(=O)O)NC(=O)[C@@H](N)C(C)C)C(C)C)C(=O)N[C@H](C(=O)O)[C@@H](C)O`, on HLA-B*4501 (CEA-derived B44 peptides), the IC50 was over 10 µM. The molecule also returned a Degeneracy in assay [1] of 0.
As for `CC(C)[C@H](N)C(=O)N[C@@H](CCC(=O)O)C(=O)N[C@@H](CC(=O)O)C(=O)N[C@@H](CCCCN)C(=O)N[C@@H](CC(=O)O)C(=O)N[C@@H](C)C(=O)N[C@H](C(=O)N[C@@H](C)C(=O)N[C@@H](Cc1ccccc1)C(=O)N[C@H](C(=O)O)[C@@H](C)O)C(C)C`, at HLA-B*4501 (CEA-derived B44 peptides), the IC50 was over 10 µM. In assay [1], this molecule registered a Degeneracy of 0.
`CC[C@H](C)[C@H](NC(=O)[C@H](CCC(=O)O)NC(=O)[C@@H](N)CCCCN)C(=O)N[C@@H](CC(C)C)C(=O)N[C@@H](CC(=O)O)C(=O)N[C@@H](CCC(=O)O)C(=O)N[C@@H](C)C(=O)N[C@@H](Cc1ccc(O)cc1)C(=O)N[C@H](C(=O)N[C@@H](CCSC)C(=O)O)C(C)C` [compound 436]: the values for the IC50 on HLA-B*4001 (setting [2]) and at HLA-B*4002 (setting [3]) were 0.0055 µM and 0.004 µM, respectively. The molecule further came in with a Degeneracy in assay [1] of 6.
In the case of `CC(C)C[C@H](NC(=O)[C@H](Cc1ccc(O)cc1)NC(=O)[C@H](CCC(=O)O)NC(=O)[C@H](CCC(=O)O)NC(=O)[C@H](C)N)C(=O)N[C@H](C(=O)N1CCC[C@H]1C(=O)N[C@@H](CCC(N)=O)C(=O)N[C@@H](CCC(N)=O)C(=O)NCC(=O)N[C@@H](Cc1ccccc1)C(=O)N[C@@H](Cc1ccccc1)C(=O)O)C(C)C` [compound 467], the IC50 at HLA-B*4001 (setting [2]) amounted to 0.262 µM.
On to `CC[C@H](C)[C@H](NC(=O)[C@H](Cc1ccc(O)cc1)NC(=O)[C@H](CC(C)C)NC(=O)[C@H](Cc1ccc(O)cc1)NC(=O)CNC(=O)[C@@H](NC(=O)[C@@H](NC(=O)[C@H](CCC(=O)O)NC(=O)[C@@H](N)CCC(=O)O)[C@@H](C)CC)[C@@H](C)O)C(=O)O` [compound 484], for which the values for the IC50 at HLA-B*4001 (setting [2]) and at HLA-B*4002 (setting [3]) were 0.906 µM and 0.916 µM, respectively. For the same molecule, in assay [1], the Degeneracy turned out to be 4.
On the same counts, the results for `CC(C)C[C@H](NC(=O)[C@H](Cc1ccc(O)cc1)NC(=O)[C@H](CCC(=O)O)NC(=O)[C@H](CCC(=O)O)NC(=O)[C@H](C)N)C(=O)N[C@H](C(=O)N1CCC[C@H]1C(=O)N[C@@H](CCC(N)=O)C(=O)N[C@@H](CCC(N)=O)C(=O)NCC(=O)N[C@@H](Cc1ccccc1)C(=O)O)C(C)C` [compound 494] are 0.584 µM, 1.83 µM and 4.
Turning to `CC(C)C[C@H](NC(=O)[C@H](Cc1ccc(O)cc1)NC(=O)[C@H](CCC(=O)O)NC(=O)[C@@H](N)CCC(=O)O)C(=O)N[C@H](C(=O)N1CCC[C@H]1C(=O)N[C@@H](CCC(N)=O)C(=O)N[C@@H](CCC(N)=O)C(=O)NCC(=O)N[C@@H](Cc1ccccc1)C(=O)N[C@@H](Cc1ccccc1)C(=O)O)C(C)C` [compound 497], the IC50 on HLA-B*4001 (setting [2]) is 4.29 µM. Moreover, in assay [1], the Degeneracy worked out at 4.
On to `CC(C)C[C@H](NC(=O)[C@H](CC(C)C)NC(=O)[C@H](CC(N)=O)NC(=O)CNC(=O)[C@H](CO)NC(=O)[C@H](CO)NC(=O)[C@H](CC(=O)O)NC(=O)[C@H](CCC(=O)O)NC(=O)[C@@H](N)CC(C)C)C(=O)O` [compound 617], for which the IC50 on HLA-B*4501 (setting [4]) was over 10 µM.
`CC(C)C[C@H](NC(=O)[C@@H]1CCCN1C(=O)[C@H](CO)NC(=O)[C@H](CC(C)C)NC(=O)[C@@H](NC(=O)[C@H](CC(N)=O)NC(=O)[C@H](CC(N)=O)NC(=O)[C@H](CCC(=O)O)NC(=O)[C@@H]1CCCN1)C(C)C)C(=O)O` [compound 625]: the IC50 on HLA-B*4501 (setting [4]) was over 10 µM.
With `CC(C)C[C@H](NC(=O)[C@H](Cc1ccc(O)cc1)NC(=O)[C@H](CCC(=O)O)NC(=O)[C@@H](N)C(C)C)C(=O)N[C@@H](CC(=O)O)C(=O)N[C@@H](CC(=O)O)C(=O)N[C@@H](CCCNC(=N)N)C(=O)N[C@@H](CC(N)=O)C(=O)N[C@H](C(=O)O)[C@@H](C)O` [compound 628], the IC50 at HLA-B*4001 (setting [4]) and at HLA-B*4002 (setting [4]) was over 10 µM throughout.
With `CC(C)[C@H](NC(=O)[C@H](CO)NC(=O)[C@@H]1CCCN1C(=O)[C@H](CC(=O)O)NC(=O)[C@H](CO)NC(=O)[C@H](CCC(N)=O)NC(=O)[C@@H]1CCCN1C(=O)[C@H](CCC(=O)O)NC(=O)[C@@H](N)CCC(=O)O)C(=O)O` [compound 637], the IC50 at HLA-B*4001 (setting [4]) and at HLA-B*4002 (setting [4]) was over 10 µM each time.
In the case of `C[C@H](NC(=O)[C@H](CCC(=O)O)NC(=O)[C@H](CC(=O)O)NC(=O)[C@@H]1CCCN1C(=O)CNC(=O)[C@@H]1CCCN1C(=O)[C@H](CC(=O)O)NC(=O)[C@H](CCC(=O)O)NC(=O)[C@@H](N)[C@@H](C)O)C(=O)O` [compound 639], at HLA-B*4002 (setting [4]), the IC50 was over 10 µM. This molecule also registered a Degeneracy in assay [1] (setting [5]) of 0.
For `CC(C)C[C@H](NC(=O)[C@H](CC(N)=O)NC(=O)[C@H](CCC(=O)O)NC(=O)[C@H](CCC(=O)O)NC(=O)[C@@H](N)CCC(=O)O)C(=O)N[C@@H](CCCNC(=N)N)C(=O)N[C@@H](CCCCN)C(=O)N[C@@H](CCCCN)C(=O)NCC(=O)O` [compound 644], at HLA-B*4002 (setting [4]), the IC50 was over 10 µM. Besides, the Degeneracy in assay [1] (setting [5]) is reported as 0.
On to `CSCC[C@H](NC(=O)[C@H](CO)NC(=O)[C@H](CC(C)C)NC(=O)[C@H](CCC(=O)O)NC(=O)[C@@H](N)CCC(=O)O)C(=O)N[C@@H](CC(C)C)C(=O)N[C@@H](CCC(=O)O)C(=O)N[C@H](C(=O)N[C@@H](Cc1ccccc1)C(=O)N[C@@H](CCC(=O)O)C(=O)NCC(=O)O)C(C)C` [compound 663], for which, at HLA-B*4001 (setting [6]), the IC50 is over 10 µM.
On to `CSCC[C@H](NC(=O)[C@H](CCCNC(=N)N)NC(=O)[C@@H]1CCCN1C(=O)CNC(=O)[C@H](CCC(=O)O)NC(=O)[C@H](CCC(=O)O)NC(=O)[C@H](CCC(=O)O)NC(=O)[C@@H](N)CCC(N)=O)C(=O)N[C@@H](Cc1ccccc1)C(=O)O` [compound 688], for which, on HLA-B*4001 (MAGE2-derived B44 peptides, Table 29), the IC50 stood at 0.626 µM.
For the molecule `CC[C@H](C)[C@H](N)C(=O)N[C@@H](CCC(=O)O)C(=O)NCC(=O)N[C@@H](CC(=O)O)C(=O)N[C@@H](CS)C(=O)N[C@@H](C)C(=O)N1CCC[C@H]1C(=O)N[C@@H](CCC(=O)O)C(=O)N[C@@H](CCC(=O)O)C(=O)N[C@@H](CCCCN)C(=O)N[C@H](C(=O)O)[C@@H](C)CC` [compound 700], the IC50 on HLA-B*4001 (setting [6]) and at HLA-B*4002 (setting [6]) was over 10 µM each time.
Consider `CC(C)[C@H](NC(=O)[C@H](CO)NC(=O)[C@H](CC(=O)O)NC(=O)[C@H](CCC(=O)O)NC(=O)[C@H](CCCNC(=N)N)NC(=O)CNC(=O)[C@H](CCC(=O)O)NC(=O)[C@@H](N)Cc1ccccc1)C(=O)N[C@@H](Cc1ccccc1)C(=O)N[C@@H](C)C(=O)O` [compound 704], for which the IC50 at HLA-B*4001 (setting [6]) is over 10 µM.
Turning to `CSCC[C@H](NC(=O)[C@H](CCCNC(=N)N)NC(=O)[C@@H]1CCCN1C(=O)CNC(=O)[C@H](CCC(=O)O)NC(=O)[C@H](CCC(=O)O)NC(=O)[C@@H](N)CCC(=O)O)C(=O)N[C@@H](Cc1ccccc1)C(=O)O` [compound 708], the IC50 at HLA-B*4002 (setting [6]) was over 10 µM.
